Laboratory results: PubChem BioAssay AID463141 (The Scripps Research Institute Molecular Screening Center, 2010)
Only a part is listed here, and it is no random draw. Calls of active or inactive are those of the source.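 Rule for the calls: active = activation above the mean of all tested compounds plus 3 SD (cut at about 21% in these data); inactive = the rest.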

By UniProt entry, the sequences of proteins in these tests, tags left out.
UniProt P42574, whole entry D9A/D28A/D175A: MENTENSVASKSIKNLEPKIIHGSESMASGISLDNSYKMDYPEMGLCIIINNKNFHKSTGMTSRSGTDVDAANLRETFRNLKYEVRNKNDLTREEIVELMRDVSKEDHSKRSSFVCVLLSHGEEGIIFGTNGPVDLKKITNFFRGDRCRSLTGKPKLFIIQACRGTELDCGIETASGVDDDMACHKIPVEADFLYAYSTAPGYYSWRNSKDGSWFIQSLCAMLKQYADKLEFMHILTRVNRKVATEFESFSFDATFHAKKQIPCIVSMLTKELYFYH

The compounds below were run against Caspase-3 (Homo sapiens) (UniProt P42574) (assay: procaspase-3 enzyme activation – biochemical, absorbance, PC-3 D3A mutant, single concentration, primary screen (AID 463141;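 note: 0% = DMSO alone and 100% = DMSO wells spiked with extra 5 µM PC-3 D3A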)). Details: recombinant procaspase-3 D3A, Ac-DEVD-pNA absorbance 405 nm; at 8.5 µM; active compounds read high.

Compound | activation
CCC(=O)N(c1ccccc1)C1(COC)CCN(CCc2cccs2)CC1 | inactive: 4.63%
CCC(=O)N(c1ccccc1)C1(COC)CCN(CCn2nnn(CC)c2=O)CC1 | inactive: 5.59%
